# Reference: US11974982B2, “Stimulus-responsive antioxidant crystals and method for their preparation” (The Board of Trustees of the University of Illinois, priority 2020, dated 2024)
# Assay: Release (dissolution) profile of catechin crystals through a dialysis membrane in PBS with or without H2O2
# Format: physicochemical
# Conditions: for dissolution rate in media containing H2O2, in words: PBS containing 0.2 mM H2O2, FIG. 5b
# Method: Dissolution profiles of recrystallized catechin in phosphate-buffered saline are analyzed by measuring the amount of catechin dissolved and diffused from a dialysis membrane (FIG. 5a). Catechin crystals (25 mg) are placed in a dialysis tube (MWCO=500-1000 g/mol, Spectrum Labs) with PBS (1 mL). The dialysis tube is placed in the PBS media (499 mL) with different H2O2 concentrations (i.e., 0, 0.0001, 0.1, 0.2, 0.3, and 0.5 mM) and incubated at 37° C. under continuous shaking at 100 rpm. At designated times, dissolved catechin is collected and determined by reading the absorbance at 260 nm using a microplate spectrophotometer (Infinite 200 PRO, Tecan).
substance,measurement,setting,value
catechin [pure catechin crystals],"dissolution rate in media containing H2O2, in words",,decrease
same,"dissolution rate in media containing H2O2, in words",listed as PEI-free catechin crystal,faster dissolution rate than catechin complexed with PEI or PEI-diselenide
same,"dissolution / release profile in PBS, in words","PBS free of H2O2, 37° C., FIG. 5a",dissolve rapidly
